Our source for the IC50 values is ChEMBL document CHEMBL1255531, “Utilization of a nitrogen-sulfur nonbonding interaction in the design of new 2-aminothiazol-5-yl-pyrimidines as p38α MAP kinase inhibitors” (Bioorg Med Chem Lett, 2010).

Amino acid sequences for entries named in this document (tags omitted).
UniProt Q16539, whole entry: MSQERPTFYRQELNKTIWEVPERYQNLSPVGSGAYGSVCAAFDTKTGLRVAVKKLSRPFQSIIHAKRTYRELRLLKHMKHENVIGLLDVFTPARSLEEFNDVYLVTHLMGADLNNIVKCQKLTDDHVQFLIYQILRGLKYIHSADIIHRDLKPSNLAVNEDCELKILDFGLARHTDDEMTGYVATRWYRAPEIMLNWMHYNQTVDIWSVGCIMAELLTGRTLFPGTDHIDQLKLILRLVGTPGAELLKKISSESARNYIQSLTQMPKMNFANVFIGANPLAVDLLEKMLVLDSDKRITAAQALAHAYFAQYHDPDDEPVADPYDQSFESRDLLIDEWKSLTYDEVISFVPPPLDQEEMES

The assay deals with Mitogen-activated protein kinase 14 (Homo sapiens, UniProt Q16539). In words: Inhibition of bacterially expressed activated p38alpha pre-incubated 10 mins measured after 45 mins by scintillation counting.

In general, IC50 refers to the concentration that inhibits the measured activity by half. High values mean weaker potency in that assay, low ones greater potency in that assay. The compound `CCNC(=O)NCc1ccccc1-c1cc(-c2cnc(NC(C)C)s2)nc(NCCN(C)C)n1` gave an IC50 of 7 nM.
